Measured values from ChEMBL document CHEMBL1667816, “Preparation and in vitro screening of symmetrical bis-isoquinolinium cholinesterase inhibitors bearing various connecting linkage--implications for early Myasthenia gravis treatment” (Eur J Med Chem, 2011).

Sequences of proteins named here, by UniProt entry; tags and fusion partners are left off. A change or cut given only in a name is not applied to a line headed by its entry.
UniProt P06276, whole entry, looked up: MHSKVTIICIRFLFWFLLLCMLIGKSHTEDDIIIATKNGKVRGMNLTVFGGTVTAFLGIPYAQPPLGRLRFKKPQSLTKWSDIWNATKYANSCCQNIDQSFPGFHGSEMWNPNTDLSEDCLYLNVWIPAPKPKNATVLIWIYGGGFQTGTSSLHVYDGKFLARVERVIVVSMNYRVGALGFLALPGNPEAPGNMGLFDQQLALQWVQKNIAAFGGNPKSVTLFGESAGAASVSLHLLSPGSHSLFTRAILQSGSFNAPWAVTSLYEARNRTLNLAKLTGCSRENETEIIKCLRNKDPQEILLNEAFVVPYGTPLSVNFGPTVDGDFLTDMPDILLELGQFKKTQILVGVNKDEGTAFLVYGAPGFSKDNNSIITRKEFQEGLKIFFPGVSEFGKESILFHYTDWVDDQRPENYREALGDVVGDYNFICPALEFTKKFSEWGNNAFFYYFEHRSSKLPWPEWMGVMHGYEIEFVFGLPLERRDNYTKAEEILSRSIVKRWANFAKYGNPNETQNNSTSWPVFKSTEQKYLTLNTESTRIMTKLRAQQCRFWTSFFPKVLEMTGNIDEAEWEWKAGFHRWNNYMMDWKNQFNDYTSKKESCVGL
UniProt P22303: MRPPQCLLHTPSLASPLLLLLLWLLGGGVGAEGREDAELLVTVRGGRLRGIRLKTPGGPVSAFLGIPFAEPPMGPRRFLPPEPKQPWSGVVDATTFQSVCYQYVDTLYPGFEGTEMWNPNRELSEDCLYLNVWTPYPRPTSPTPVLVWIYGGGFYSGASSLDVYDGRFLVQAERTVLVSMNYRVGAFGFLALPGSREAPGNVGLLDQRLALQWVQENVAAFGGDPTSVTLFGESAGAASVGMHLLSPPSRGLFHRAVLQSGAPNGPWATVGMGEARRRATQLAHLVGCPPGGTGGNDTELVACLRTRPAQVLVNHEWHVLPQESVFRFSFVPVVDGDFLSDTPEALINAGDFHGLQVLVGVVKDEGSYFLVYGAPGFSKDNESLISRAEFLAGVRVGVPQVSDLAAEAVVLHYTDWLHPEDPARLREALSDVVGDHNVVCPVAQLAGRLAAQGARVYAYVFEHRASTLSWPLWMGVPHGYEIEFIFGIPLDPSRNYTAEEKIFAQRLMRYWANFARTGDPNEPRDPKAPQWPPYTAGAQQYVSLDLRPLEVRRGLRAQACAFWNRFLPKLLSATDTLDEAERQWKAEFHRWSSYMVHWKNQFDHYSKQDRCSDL

target: Cholinesterases; ACHE & BCHE (Homo sapiens) (UniProt P06276+P22303); experiment: Selectivity ratio of IC50 for human plasmatic BChE to IC50 for human recombinant AChE

First: c1ccc2c[n+](CCCCCCCC[n+]3ccc4ccccc4c3)ccc2c1
Second: CCN(CC)C(C)CN1c2ccccc2Sc2ccccc21 (stereo not drawn)
The Ratio IC50 of the first is higher: 80 for the first, 0.002 for the second.

Work on `C=CC[N+](C)(C)c1ccc(CCC(=O)CCc2ccc([N+](C)(C)CC=C)cc2)cc1` yielded a Ratio IC50 of 11800.
